For 16 compounds, Ratio Ki results are on record in ChEMBL document CHEMBL3124778, “Structure-based design of new dihydrofolate reductase antibacterial agents: 7-(benzimidazol-1-yl)-2,4-diaminoquinazolines” (J Med Chem, 2014).

The nature of the assay: Selectivity ratio of Ki for human DHFR to Ki for Staphylococcus aureus DHFR.
`Cc1cc2nc(C3CCOC3)n(-c3ccc4c(N)nc(N)nc4c3)c2cc1C` (stereo unspecified): the Ratio Ki is more than 1000.

In the case of `Cc1cc2nc(-c3cccs3)n(-c3cc4nc(N)nc(N)c4cc3Cl)c2cc1C`, the Ratio Ki was more than 100000.

As to `Cc1cc2nc(-c3ccsc3)n(-c3ccc4c(N)nc(N)nc4c3)c2cc1C`, the Ratio Ki turned out to be 55000.

For `Cc1cc2nc(-c3nccs3)n(-c3ccc4c(N)nc(N)nc4c3)c2cc1C`, the Ratio Ki was found to be 46500.

Regarding `Cc1cc2nc(-c3cncn3C)n(-c3ccc4c(N)nc(N)nc4c3)c2cc1C`, the Ratio Ki worked out at 2600.

As for `COc1ccc(-c2nc3cc(C)c(C)cc3n2-c2ccc3c(N)nc(N)nc3c2)cc1`, the Ratio Ki stood at 6800.

Turning to `Cc1cc2nc(C3CC3)n(-c3ccc4c(N)nc(N)nc4c3)c2cc1C`, the Ratio Ki was determined as 8300.

Turning to `Cc1cc2nc(-c3cccs3)n(-c3ccc4c(N)nc(N)nc4c3)c2cc1C`, the Ratio Ki amounted to 205000.

Take `Cc1cc2nc(-c3ccncc3)n(-c3ccc4c(N)nc(N)nc4c3)c2cc1C`: the Ratio Ki came out at 17000.

For `Cc1cc2nc(C3CCCO3)n(-c3ccc4c(N)nc(N)nc4c3)c2cc1C` (stereo unspecified), the Ratio Ki came to 3700.

As to `Cc1cc2nc(-c3ccco3)n(-c3ccc4c(N)nc(N)nc4c3)c2cc1C`, the Ratio Ki worked out at 135000.

Consider `Cc1cc2ncn(-c3ccc4c(N)nc(N)nc4c3)c2cc1C`, for which the Ratio Ki was 950.

With `COc1cc2nc(-c3ccco3)n(-c3cc4nc(N)nc(N)c4cc3Cl)c2cc1OC`, the Ratio Ki is 25000.

In the case of `COc1cc2nc(-c3cccs3)n(-c3cc4nc(N)nc(N)c4cc3Cl)c2cc1OC`, the Ratio Ki was more than 20000.

`Cc1cc2nc(N3CCOCC3)n(-c3ccc4c(N)nc(N)nc4c3)c2cc1C`: the Ratio Ki was determined as 1800.

With `Cc1cc2nc(-c3cccn3C)n(-c3ccc4c(N)nc(N)nc4c3)c2cc1C`, the Ratio Ki is more than 1250.
